Data on 73 molecules can be found in PubChem BioAssay AID2553 (Johns Hopkins Ion Channel Center, 2010).

The chains behind the UniProt entries cited, without tags or fusion partners.
UniProt Q61143, whole entry: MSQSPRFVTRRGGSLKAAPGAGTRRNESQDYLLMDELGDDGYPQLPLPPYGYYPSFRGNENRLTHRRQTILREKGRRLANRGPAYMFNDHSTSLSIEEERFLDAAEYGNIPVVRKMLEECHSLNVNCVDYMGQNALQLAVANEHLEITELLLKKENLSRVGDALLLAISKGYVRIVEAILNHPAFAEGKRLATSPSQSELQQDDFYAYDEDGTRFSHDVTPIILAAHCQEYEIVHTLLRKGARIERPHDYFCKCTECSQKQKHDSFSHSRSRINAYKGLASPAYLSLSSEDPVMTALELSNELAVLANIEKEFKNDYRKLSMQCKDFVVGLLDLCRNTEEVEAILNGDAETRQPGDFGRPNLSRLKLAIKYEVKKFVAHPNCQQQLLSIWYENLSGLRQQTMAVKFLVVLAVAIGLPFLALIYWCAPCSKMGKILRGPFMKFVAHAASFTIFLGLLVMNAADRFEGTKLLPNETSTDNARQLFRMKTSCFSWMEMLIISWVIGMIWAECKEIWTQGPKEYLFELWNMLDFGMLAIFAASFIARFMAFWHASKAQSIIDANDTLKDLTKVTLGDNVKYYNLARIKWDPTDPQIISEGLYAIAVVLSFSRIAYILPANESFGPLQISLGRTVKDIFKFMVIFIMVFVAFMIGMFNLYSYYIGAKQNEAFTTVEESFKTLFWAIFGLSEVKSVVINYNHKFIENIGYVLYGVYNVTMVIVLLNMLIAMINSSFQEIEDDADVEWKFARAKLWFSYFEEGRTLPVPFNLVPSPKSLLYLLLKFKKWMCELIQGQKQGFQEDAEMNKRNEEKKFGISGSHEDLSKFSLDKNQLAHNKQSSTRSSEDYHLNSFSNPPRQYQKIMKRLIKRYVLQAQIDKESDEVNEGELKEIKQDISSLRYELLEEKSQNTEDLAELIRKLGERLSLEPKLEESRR

The list shows a part of the results, in another mix than the full data. The source made the active and inactive calls.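 How the source made its calls: active means B-score under library mean minus 3 SD, initial fluorescence not abnormally high, positive integrated signal ratio; inactive means the rest.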

For this test, the target named is Short transient receptor potential channel 6 (Mus musculus) (UniProt Q61143). The test can be described thus: mouse TRPC6 channel inhibitors, primary screen, cell-based, HEK293, membrane potential dye (AID 2553).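 On B-score: B-score derived from integrated fluorescence ratio over the kinetic read; more negative B-score means stronger inhibition of depolarization.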 The note with it: ACh-evoked depolarization, at 10 µM; active compounds read low.
`CCOC(=O)Nc1ccc([As](=O)(O)O)c(O)c1`: the molecule was classed as inactive.
For `CCCCOc1ccc(C(=O)NCC2(N3CCCCC3)CCCCC2)cc1OC`, the result was inactive.
On the same count and under the same terms, then `Cc1cc(SC(NC(=O)c2ccccc2)C(Cl)(Cl)Cl)nc(C(C)C)n1` (stereo not drawn), with “inactive”; and `CCOC(=O)Nc1cccc([As](=O)(O)O)c1`, with “inactive”.
`CP(=S)(Nn1cnnc1)Oc1ccccc1` (stereo not drawn): the molecule was called inactive.
For `CP(=O)(Nc1ccccc1Br)Oc1ccccc1` (stereo not drawn), the outcome was inactive.
Still for that read-out and setting: to `O=[N+]([O-])c1ccc(Nc2ccc(Oc3ccc([N+](=O)[O-])cc3[N+](=O)[O-])cc2)c([N+](=O)[O-])c1` belongs “inactive”; to `O=P(Nc1ccccn1)(c1cccc2ccccc12)c1cccc2ccccc12`, “inactive”.
Turning to `Cc1cc(SC(NC=O)C(Cl)(Cl)Cl)ncn1` (stereo not drawn), the outcome was inactive.
Take `COc1ccccc1OP(C)(=O)Nc1ccccc1` (stereo not drawn): the molecule was classed as inactive.
On the same count and under the same terms, to `COP1(=S)c2c(C)nn(CCC#N)c2N=C(c2ccc(F)cc2)N1C` (stereo not drawn) belongs “inactive”; to `Cc1cccc(C)c1OP(C)(=O)Nc1ccc(SC(F)(F)F)cc1` (stereo not drawn), “inactive”; to `CP(=O)(Nc1ccc(SC(F)(F)F)cc1)Oc1ccc(Cl)cc1` (stereo not drawn), “inactive”.
`CP(=O)(Oc1ccccc1)OC(c1ccccc1)C(F)(F)F` (stereo not drawn): the result was inactive.
`O=C(COc1ccccc1)OC1CN2CCC1CC2` (stereo not drawn): the molecule was called inactive.
With `CP(=O)(NC(=O)Nc1ccccc1)Oc1ccccc1` (stereo not drawn), the molecule was called inactive.
Still for that read-out and setting: then `CCc1ccc(OP(C)(=O)N2CCN(c3ccc([N+](=O)[O-])cc3)CC2)cc1` (stereo not drawn), with “inactive”; and `Cc1cc(C)cc(OP(C)(=O)Nc2ccc(SC(F)(F)F)cc2)c1` (stereo not drawn), with “inactive”; and `O=C(Nc1ccncc1[N+](=O)[O-])c1ccc([N+](=O)[O-])cc1[N+](=O)[O-]`, with “inactive”.
On the same count and under the same terms, then `CCOC(=O)c1ccc(NC(=O)C(C)(CCl)SC)cc1` (stereo not drawn), with “inactive”; and `CCOC(=O)c1ccc(NP(C)(=O)Oc2ccc(OC)cc2)cc1` (stereo not drawn), with “inactive”.
As for `O=[N+]([O-])c1cc([N+](=O)[O-])c(O)c([N+](=O)[O-])c1.c1ccc(Oc2ccncc2)cc1`, the molecule was called inactive.
Take `CCOP(C)(=S)SCC(=O)NC(C)C(=O)O` (stereo not drawn): the molecule was called inactive.
Take `O=C(OC1CN2CCC1CC2)c1cccc([N+](=O)[O-])c1` (stereo not drawn): the molecule was classed as inactive.
For `CP(=O)(Nc1ccccn1)Oc1ccc(Cl)cc1` (stereo not drawn), the call was inactive.
In the case of `CCC(C)N(CC(C)C)C(=S)SC(NC(C)=O)C(Cl)(Cl)Cl` (stereo not drawn), the outcome was inactive.
`CCN(CC)CCCOC(=O)C(O)(c1ccccc1)c1ccccc1`: the B-score was active: -11.1.
Consider `Cc1cc(=O)[nH]c(N[N+](=O)[O-])n1`, for which the outcome was inactive.
As to `Cc1c2c(nc3ccccc13)SC(C(Cl)Cl)C2` (stereo not drawn), the molecule was classed as inactive.
For `COc1ccc2nc(NP(=O)(c3ccccc3)c3ccccc3)sc2c1`, the outcome was inactive.
For the molecule `COc1cc(I)ccc1[As](=O)(O)O`, the result was inactive.
On the same count and under the same terms, then `COc1ccc(N/C(=N/P(=O)(N2CCOCC2)N2CCOCC2)N2CCOCC2)cc1`, with “inactive”.
`O=[As](O)(c1ccc(O)cc1)c1ccccc1O`: the result was inactive.
Consider `C[As](=O)(O)c1cccc(C(=O)O)c1`, for which the outcome was inactive.
As for `O=[N+]([O-])c1cc([N+](=O)[O-])c(Nc2cccnc2)c([N+](=O)[O-])c1`, the call was inactive.
On the same count and under the same terms, then `O=[N+]([O-])c1ccc2c(c1)C=Nc1ccccc1O2`, with “inactive”; and `Cc1ccc2nc3c(c(C)c2c1)CC(C(Cl)Cl)S3` (stereo not drawn), with “inactive”.
`Cc1ccc(OP(=O)(Nc2ccc([N+](=O)[O-])cn2)Oc2ccc(C)cc2)cc1`: the molecule was called inactive.
Still for that read-out and setting: then `CC(C)(C)c1ccc(OP(C)(=O)Nc2ccc(SC(F)(F)F)cc2)cc1` (stereo not drawn), with “inactive”; and `Cc1cccc(C)c1OP(C)(N)=O` (stereo not drawn), with “inactive”; and `COc1ccccc1OP(C)(=O)Nc1ccc(C)cc1` (stereo not drawn), with “inactive”.
Still for that read-out and setting: to `CC(C)c1ccc(OP(=O)(Nc2ccccn2)Oc2ccccc2F)cc1` (stereo not drawn) belongs “inactive”; to `Cc1ccc(NP(C)(=O)Oc2ccccc2)c(C)c1` (stereo not drawn), “inactive”; to `CCOC(=O)c1ccc(NP(C)(=O)Oc2ccccc2)cc1` (stereo not drawn), “inactive”.
For `ClCCSc1nnc(-c2cccnc2)o1`, the outcome was inactive.
In the case of `Cc1cc(C)cc(OP(C)(N)=O)c1` (stereo not drawn), the call was inactive.
In the case of `COc1ccccc1OP(C)(=O)Nc1cc(Cl)ccc1C` (stereo not drawn), the molecule was classed as inactive.
Consider `CC(C)NC(=O)NP(=O)(Oc1ccccc1)Oc1ccccc1`, for which the molecule was called inactive.
The same measure, in the same setting: then `CCN(CC)C(=S)SC(NC=O)C(Cl)(Cl)Cl` (stereo not drawn), with “inactive”.
For `COc1ccc(OP(C)(=O)Nc2cccc(F)c2)cc1` (stereo not drawn), the result was inactive.
As for `O=[N+]([O-])c1cc([N+](=O)[O-])c(-c2ccn[nH]2)s1`, the molecule was called inactive.
For the molecule `CS(=O)(=O)c1cc([N+](=O)[O-])c2no[n+]([O-])c2c1`, the molecule was called inactive.
`CCOP1(=S)c2c(C)nn(CCC#N)c2N=C(c2ccccc2F)N1C` (stereo not drawn): the result was inactive.
Regarding `O=C(O)c1cccc(Nc2c([N+](=O)[O-])cc([N+](=O)[O-])cc2[N+](=O)[O-])c1`, the call was inactive.
The same measure, in the same setting: to `O=P(Nc1nccs1)(Oc1ccccc1)Oc1ccccc1` belongs “inactive”.
Still for that read-out and setting: then `O=P(Nc1nccs1)(c1ccccc1)c1nc2ccccc2s1` (stereo not drawn), with “inactive”.
As for `Nc1ccccc1[As](=O)(O)c1ccccc1`, the result was inactive.
Same read-out and setting: to `O=C(O)COc1ccc([As](=O)(O)O)cc1[N+](=O)[O-]` belongs “inactive”.
Consider `NC(=O)Nc1ccc([As](=O)(O)O)cc1`, for which the molecule was classed as inactive.
The same measure, in the same setting: to `O=[N+]([O-])c1ccc2c(c1)nnn2O` belongs “inactive”; to `CN(C)C(=O)c1cc([N+](=O)[O-])cc2c1-c1c(cc([N+](=O)[O-])cc1[N+](=O)[O-])C2=O`, “inactive”; to `CC1=NCCc2c1[nH]c1ccccc21.O=[N+]([O-])c1cc([N+](=O)[O-])c(O)c([N+](=O)[O-])c1`, “inactive”.
`CN(C(=O)Cc1ccc(Cl)c(Cl)c1)[C@H]1CC[C@@]2(CCCO2)C[C@@H]1N1CCCC1`: the result was inactive.
Turning to `N#CCCN(C(=O)COC(=O)C(O)(c1ccccc1)c1ccccc1)c1ccc(F)cc1`, the result was inactive.
As for `CN(C(=O)Cc1ccccc1)[C@@H]1CC[C@]2(CCCO2)C[C@H]1N1CCCC1`, the result was inactive.
Consider `CCOP1(=S)c2c(C)nn(CCC#N)c2N=C(c2ccc(F)cc2)N1C` (stereo not drawn), for which the molecule was called inactive.
Take `O=[As](O)(O)c1cccnc1`: the result was inactive.
Same read-out and setting: to `COc1cc(C(=O)NCC2(N3CCOCC3)CCCCC2)cc(Cl)c1OC(C)C` belongs “inactive”.
Same read-out and setting: then `CS(=O)(=O)c1ccc(Cl)c(NC(=O)COC(=O)C(O)(c2ccccc2)c2ccccc2)c1`, with “inactive”.
Consider `COc1ccccc1OP(C)(=O)Nc1cccc(Br)c1` (stereo not drawn), for which the outcome was inactive.
On to `O=C(OC1CN2CCC1CC2)c1ccc(Cl)cc1` (stereo not drawn), for which the outcome was inactive.
Take `CCOC(=O)c1ccc(NP(C)(=O)Oc2cc(C)cc(C)c2)cc1` (stereo not drawn): the molecule was classed as inactive.
Take `Cc1cccc(OCC(=O)OC2CN3CCC2CC3)c1` (stereo not drawn): the result was inactive.
